{
  "source": "paper PMC3062473",
  "about": "(ChemMedChem, 2010)",
  "biological_target": "T1, Caspase 3 (Homo sapiens, UniProt P42574)",
  "T1 sequence (P42574 29-175 limits assumed)": "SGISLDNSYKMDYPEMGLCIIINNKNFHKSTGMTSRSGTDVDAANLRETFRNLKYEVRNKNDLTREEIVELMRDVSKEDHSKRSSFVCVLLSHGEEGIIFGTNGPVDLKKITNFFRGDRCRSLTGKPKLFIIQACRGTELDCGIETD",
  "T1 sequence (P42574 176-277 limits assumed)": "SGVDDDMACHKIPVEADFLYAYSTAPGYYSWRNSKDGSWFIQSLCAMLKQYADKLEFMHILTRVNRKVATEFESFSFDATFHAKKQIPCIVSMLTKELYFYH",
  "experiment": "Reaction Biology caspase panel",
  "type": "biochemical",
  "note": "pIC50: −log10 of the molar value.",
  "data": [
    {"compound": "CC(=O)N[C@@H](CC(=O)O)C(=O)N[C@@H](CCC(=O)O)C(=O)N[C@H](C(=O)N[C@H](C=O)CC(=O)O)C(C)C", "note": "[Ac-DEVD-CHO, reference compound]", "values": [
      {"measurement": "pIC50", "result": 8.52}
    ]}
  ]
}
